For this assay, the target named is human Cav2.2 (Homo sapiens, UniProt Q00975). The assay is described as follows: Assessment of calcium channel activity using FLIPR (Ca2+ influx in IMR32 cells). The format is cell-based. As for the experimental part: (i) In Vitro Methods—Assessment of Calcium Channel Activity Using FLIPR:
The IMR32 cells were maintained in MEM media containing 10% (v/v) FBS, 1% (v/v) antibiotic/antimitotic, 1% (v/v) sodium pyruvate and 1% (v/v) MEM NEAA. Following dissociation in 0.05% (v/v) trypsin/EDTA, cells were seeded into black 1×96-well plates (Corning Cellbind) at a density of 1-1.2×10^5 cells/well and incubated in the maintenance media above for 48 hours at 37° C. […] To determine the IC50 values, the percent inhibition of the compound at each concentration was determined relative to the activity in the absence of inhibitor, and data was fitted using non-linear regression sigmoidal dose response curve analysis with GraphPad Prism®.

By UniProt entry, the sequences of proteins in these tests, tags left out.
UniProt Q00975, whole entry: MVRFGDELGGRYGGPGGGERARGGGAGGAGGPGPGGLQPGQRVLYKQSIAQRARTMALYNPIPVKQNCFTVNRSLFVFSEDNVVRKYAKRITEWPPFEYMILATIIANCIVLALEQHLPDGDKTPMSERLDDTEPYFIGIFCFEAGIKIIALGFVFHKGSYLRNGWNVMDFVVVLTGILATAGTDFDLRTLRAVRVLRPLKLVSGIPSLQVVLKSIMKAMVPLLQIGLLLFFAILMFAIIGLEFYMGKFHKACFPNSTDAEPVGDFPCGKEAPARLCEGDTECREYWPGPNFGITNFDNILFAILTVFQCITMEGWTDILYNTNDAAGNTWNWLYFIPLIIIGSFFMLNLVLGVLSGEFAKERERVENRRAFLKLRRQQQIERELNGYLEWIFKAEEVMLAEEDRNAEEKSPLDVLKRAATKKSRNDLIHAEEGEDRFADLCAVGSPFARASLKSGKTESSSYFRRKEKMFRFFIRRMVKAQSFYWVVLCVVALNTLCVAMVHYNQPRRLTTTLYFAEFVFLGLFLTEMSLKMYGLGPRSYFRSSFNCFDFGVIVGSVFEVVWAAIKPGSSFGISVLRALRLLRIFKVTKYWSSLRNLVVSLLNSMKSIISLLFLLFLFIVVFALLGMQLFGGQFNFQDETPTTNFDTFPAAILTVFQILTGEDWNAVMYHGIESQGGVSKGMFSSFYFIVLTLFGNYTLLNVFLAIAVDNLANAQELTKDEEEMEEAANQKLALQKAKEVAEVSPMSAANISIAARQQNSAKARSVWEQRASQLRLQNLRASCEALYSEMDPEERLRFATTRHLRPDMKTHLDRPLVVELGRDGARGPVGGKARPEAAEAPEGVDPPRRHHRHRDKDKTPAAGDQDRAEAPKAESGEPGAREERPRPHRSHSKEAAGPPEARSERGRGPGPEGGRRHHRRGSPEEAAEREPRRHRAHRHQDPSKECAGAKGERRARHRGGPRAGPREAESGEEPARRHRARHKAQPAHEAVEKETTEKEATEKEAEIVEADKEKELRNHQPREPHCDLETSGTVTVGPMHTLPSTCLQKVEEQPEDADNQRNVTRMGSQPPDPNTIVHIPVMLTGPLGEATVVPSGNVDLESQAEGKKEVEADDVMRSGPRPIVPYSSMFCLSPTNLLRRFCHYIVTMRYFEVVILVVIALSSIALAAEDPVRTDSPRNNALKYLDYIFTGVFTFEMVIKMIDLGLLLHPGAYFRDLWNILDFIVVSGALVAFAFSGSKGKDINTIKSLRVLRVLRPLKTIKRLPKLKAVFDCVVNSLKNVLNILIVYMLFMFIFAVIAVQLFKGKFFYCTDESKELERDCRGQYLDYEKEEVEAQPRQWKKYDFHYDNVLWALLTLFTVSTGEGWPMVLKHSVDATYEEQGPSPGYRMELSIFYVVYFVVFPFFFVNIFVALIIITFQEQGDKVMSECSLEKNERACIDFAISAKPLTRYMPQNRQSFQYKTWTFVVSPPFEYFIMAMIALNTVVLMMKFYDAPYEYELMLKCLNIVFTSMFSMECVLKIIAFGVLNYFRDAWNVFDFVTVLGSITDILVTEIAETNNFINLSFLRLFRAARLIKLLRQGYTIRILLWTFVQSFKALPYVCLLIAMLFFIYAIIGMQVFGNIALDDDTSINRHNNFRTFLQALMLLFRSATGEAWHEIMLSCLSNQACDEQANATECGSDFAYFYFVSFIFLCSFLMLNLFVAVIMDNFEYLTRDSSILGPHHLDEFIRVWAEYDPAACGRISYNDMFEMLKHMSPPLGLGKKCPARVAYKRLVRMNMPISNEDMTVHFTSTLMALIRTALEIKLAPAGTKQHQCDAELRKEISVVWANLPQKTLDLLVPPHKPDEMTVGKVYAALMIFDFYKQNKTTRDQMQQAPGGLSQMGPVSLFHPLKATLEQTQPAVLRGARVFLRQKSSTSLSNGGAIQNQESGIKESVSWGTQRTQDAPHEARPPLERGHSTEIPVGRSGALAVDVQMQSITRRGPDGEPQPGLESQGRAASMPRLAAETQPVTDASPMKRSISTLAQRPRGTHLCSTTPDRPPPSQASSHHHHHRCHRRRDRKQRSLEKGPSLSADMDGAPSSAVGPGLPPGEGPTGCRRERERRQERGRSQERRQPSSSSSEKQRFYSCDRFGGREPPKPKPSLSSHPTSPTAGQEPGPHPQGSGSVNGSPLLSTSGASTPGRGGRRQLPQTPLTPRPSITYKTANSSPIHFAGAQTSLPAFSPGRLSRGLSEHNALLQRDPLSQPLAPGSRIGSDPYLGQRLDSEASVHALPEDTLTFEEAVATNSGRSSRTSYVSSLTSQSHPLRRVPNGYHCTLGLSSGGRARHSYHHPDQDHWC

As usually defined, the IC50 is the concentration at which inhibition is half-maximal. Consider `CC(C)N[C@@H](CC(C)(C)C)C(=O)N[C@H]1CC[C@@H]2CN(S(=O)(=O)c3ccc(C(F)(F)F)cc3)C[C@@H]21` [Example 480, N^2-isopropyl-4-methyl-N^1-((3aR,4S,6aS)-2-{[4-(trifluoromethyl)phenyl]sulfonyl}octahydrocyclopenta[c]pyrrol-4-yl)-L-leucinamide], for which the IC50 is 1.31 µM.

The values are drawn from US8129417B2, “Substituted octahydrocyclopenta[C]pyrrol-4-amines as calcium channel blockers” (Abbott Laboratories, priority 2008, dated 2012).
